Results taken from patent publication US20210246109A1, “POTENT AND SELECTIVE INHIBITORS OF CYTOCHROME P450” (University of Kentucky Research Foundation, priority 2020, published 2021).
Where two headings read alike, the source gives them in different places.

Protein sequences, listed by entry. Tags and fused reporters are not part of them. Residues count along the entry.
UniProt P05177, 2-516: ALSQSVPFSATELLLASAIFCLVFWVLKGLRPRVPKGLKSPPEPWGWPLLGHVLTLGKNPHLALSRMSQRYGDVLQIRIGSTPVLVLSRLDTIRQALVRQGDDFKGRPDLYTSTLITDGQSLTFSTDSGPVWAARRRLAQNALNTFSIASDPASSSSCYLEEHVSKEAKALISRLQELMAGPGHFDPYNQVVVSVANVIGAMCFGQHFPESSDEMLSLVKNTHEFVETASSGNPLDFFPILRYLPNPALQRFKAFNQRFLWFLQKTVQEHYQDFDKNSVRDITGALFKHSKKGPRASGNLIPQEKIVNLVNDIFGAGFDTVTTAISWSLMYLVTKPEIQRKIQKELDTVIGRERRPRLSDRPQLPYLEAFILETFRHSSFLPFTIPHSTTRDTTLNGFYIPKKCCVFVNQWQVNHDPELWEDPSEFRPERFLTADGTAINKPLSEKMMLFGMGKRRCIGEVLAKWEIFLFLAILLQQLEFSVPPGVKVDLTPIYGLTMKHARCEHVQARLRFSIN

Columns and labels:
CYP1A1 = target: T1, CYP1A1 (Homo sapiens, UniProt P04798); assay: EROD assay in CYP1A1 counter-screen cell line; type: cell-based; details: for SI 1B1:1A1: selectivity index
T1 construct: expressed in transfected cells
T1 sequence (P04798 1-512): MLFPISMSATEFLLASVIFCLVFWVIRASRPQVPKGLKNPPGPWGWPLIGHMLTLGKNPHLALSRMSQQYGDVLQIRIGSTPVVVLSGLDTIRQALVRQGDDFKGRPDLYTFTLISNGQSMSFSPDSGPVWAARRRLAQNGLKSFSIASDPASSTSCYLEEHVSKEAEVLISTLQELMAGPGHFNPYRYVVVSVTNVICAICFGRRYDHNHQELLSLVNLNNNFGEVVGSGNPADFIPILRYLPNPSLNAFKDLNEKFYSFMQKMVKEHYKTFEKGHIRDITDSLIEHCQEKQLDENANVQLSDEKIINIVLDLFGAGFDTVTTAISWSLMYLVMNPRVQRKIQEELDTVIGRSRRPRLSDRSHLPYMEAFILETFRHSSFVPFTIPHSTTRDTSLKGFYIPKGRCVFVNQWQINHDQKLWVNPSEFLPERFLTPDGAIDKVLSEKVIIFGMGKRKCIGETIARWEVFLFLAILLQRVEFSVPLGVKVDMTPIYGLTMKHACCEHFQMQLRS

CYP1B1 = target: T2, CYP1B1 (Homo sapiens, UniProt Q16678); assay: EROD assay in inducible CYP1B1 cell line; type: cell-based; details: Table 2
T2 construct: expressed in transfected cells
T2 sequence (Q16678 1-543): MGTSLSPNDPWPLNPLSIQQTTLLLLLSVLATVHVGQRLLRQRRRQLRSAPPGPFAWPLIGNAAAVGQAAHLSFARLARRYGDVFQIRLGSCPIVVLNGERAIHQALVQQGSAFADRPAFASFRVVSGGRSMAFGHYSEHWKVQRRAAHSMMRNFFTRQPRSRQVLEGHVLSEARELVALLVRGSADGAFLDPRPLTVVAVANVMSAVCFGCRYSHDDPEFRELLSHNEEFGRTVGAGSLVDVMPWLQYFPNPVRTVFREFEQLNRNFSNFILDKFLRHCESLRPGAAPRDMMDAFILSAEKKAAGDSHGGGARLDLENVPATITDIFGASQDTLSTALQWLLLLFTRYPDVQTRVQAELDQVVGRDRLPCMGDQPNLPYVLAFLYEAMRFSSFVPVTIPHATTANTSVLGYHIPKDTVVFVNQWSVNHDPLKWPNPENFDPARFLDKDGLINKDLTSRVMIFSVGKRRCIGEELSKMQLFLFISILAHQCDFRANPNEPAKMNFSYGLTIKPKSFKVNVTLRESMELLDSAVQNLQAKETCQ

[1] = target: pooled human liver microsomes (pHLMs) (Homo sapiens, UniProt P05177); assay: EROD counterscreen in pooled human liver microsomes; type: biochemical; details: selectivity index
[2] = Table 2, EROD assay, read-out: IC50 CYP1A1

SMILES	IC50 (CYP1A1; [2]) [nM]	IC50 (CYP1B1) [nM]	SI 1B1:1A1 (CYP1A1)	also measured
COc1ccc(-c2csc(-c3ccc(OC)cc3OC)n2)c(OC)c1 [GL660]	5650	6.2	–	–
COc1ccc(-c2nc(-c3ccc(C#N)cc3)cs2)c(OC)c1 [GL662]	525	0.0208	25259	–
COc1ccc(-c2nc(-c3ccc(O)cc3)cs2)c(OC)c1 [GL673]	1980	–	–	–
COc1cc(/C=C/c2ccc(OC)cc2OC)cc(OC)c1 [TMS, reference compound]	–	–	–	IC50 (CYP1A1; Table 1, read-out: CYP1A1 IC50): 1500 nM; IC50 (CYP1A1; Table 3, read-out: IC50 1A1): 1500 nM
COc1ccc(-c2csc(-c3ccc(OC)cc3OC)n2)cc1 [GL679]	2880	25	–	–
COc1ccc(-c2nc(-c3cccnc3)cs2)c(OC)c1 [GL661]	–	–	4.7	SI 1B1:HLM [1]: 0.0015; IC50 (CYP1A1; IC50 CYP1A1, Table 2, EROD assay): 25.5 nM
